Apparent affinities of Ab-14 variants for a coronavirus HR2 peptide

All variants were tested on one target, the spike HR2 peptide PDVDLGDISGINAS (SARS-CoV-2).

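Phage display of a naive human antibody library on the peptide gave the parent. This is the validation round: designs drawn from the data on random variants, tested in the same kind of assay. Their group label is 14L_Ctrl (Ctrl: baseline library sampled from a position-specific scoring matrix, with some repeated check sequences). In AlphaSeq, yeast of one mating type display the scFv and yeast of the other type display the target. The frequency of each diploid, read from paired DNA barcodes, reflects how well the two displayed proteins bind. A regression on co-assayed BCL2-family reference pairs converts the normalised counts of each replicate to an apparent Kd. Each pool was mated in six replicate cultures.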

Each scFv is VH, three GGGGS repeats, VL, as in the parent Ab-14, and differs from it in the CDRs of the light chain only.
VH: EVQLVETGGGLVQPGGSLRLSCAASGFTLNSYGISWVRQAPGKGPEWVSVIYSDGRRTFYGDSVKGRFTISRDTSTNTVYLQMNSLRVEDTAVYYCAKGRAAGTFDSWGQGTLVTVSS
VL: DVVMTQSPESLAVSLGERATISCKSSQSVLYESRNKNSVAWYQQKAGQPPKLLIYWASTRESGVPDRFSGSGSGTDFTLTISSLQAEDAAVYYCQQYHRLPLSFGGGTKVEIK

Substitutions are numbered in sequence along the VL above, starting at 1 (not Kabat).
The read-out is the apparent dissociation constant on a log10 scale (nM): the lower, the stronger.
Where no diploid with the target was found in that replicate, the entry reads "n.d.": below detection, most likely a poor binder, though not proof of it.

{"changes": "K36H", "log10 Kd, replicates": "n.d. / n.d. / n.d. / n.d. / 1.58 / n.d.", "signal with controls": "0 of 18"}
{"changes": "R34D/W56N", "log10 Kd, replicates": "0.32 / 0.68 / 0.41 / 0.02 / -0.07 / 0.71", "signal with controls": "2 of 18 (2.64)"}
{"changes": "S26R/S62D/P101V", "log10 Kd, replicates": "n.d. / n.d. / n.d. / n.d. / n.d. / n.d.", "signal with controls": "0 of 18"}
{"changes": "W56G/L100I", "log10 Kd, replicates": "2.51 / n.d. / 2.17 / 1.97 / n.d. / 2.42", "signal with controls": "0 of 18"}
{"changes": "T59N", "log10 Kd, replicates": "n.d. / n.d. / n.d. / n.d. / n.d. / 2.12", "signal with controls": "0 of 18"}
{"changes": "L30I/Y31E", "log10 Kd, replicates": "2.01 / 1.67 / n.d. / 1.70 / n.d. / 1.48", "signal with controls": "0 of 18"}
{"changes": "S33T/N37R", "log10 Kd, replicates": "n.d. / n.d. / n.d. / 2.16 / n.d. / n.d.", "signal with controls": "0 of 18"}
{"changes": "V29Q/E32N/S33G/L102C", "log10 Kd, replicates": "n.d. / n.d. / n.d. / n.d. / n.d. / n.d.", "signal with controls": "0 of 18"}
{"changes": "A57R/Q96A/P101L", "log10 Kd, replicates": "n.d. / n.d. / n.d. / n.d. / n.d. / n.d.", "signal with controls": "0 of 18"}
{"changes": "S26G/S103F", "log10 Kd, replicates": "1.36 / n.d. / n.d. / n.d. / 1.57 / n.d.", "signal with controls": "0 of 18"}
{"changes": "L30V/N35S/W56Q", "log10 Kd, replicates": "0.49 / 0.45 / 0.70 / 0.14 / 0.24 / 0.23", "signal with controls": "1 of 18 (2.21)"}
{"changes": "Q27L/E32D/R34M/K36P/T59I/S62D/S103H", "log10 Kd, replicates": "2.40 / 1.63 / n.d. / 2.19 / 1.14 / 1.90", "signal with controls": "1 of 18 (1.71)"}
{"changes": "S26N/R34Q/T59K/S62K", "log10 Kd, replicates": "1.87 / 1.34 / 2.09 / 2.06 / 2.03 / 1.79", "signal with controls": "1 of 18 (1.78)"}
{"changes": "W56D/A57G/P101A/S103F", "log10 Kd, replicates": "n.d. / 2.32 / n.d. / 1.94 / 4.02 / 1.68", "signal with controls": "0 of 18"}
{"changes": "L30C/H98F/R99V", "log10 Kd, replicates": "n.d. / 1.77 / n.d. / n.d. / n.d. / n.d.", "signal with controls": "0 of 18"}
{"changes": "S26E/R34T/Q96T", "log10 Kd, replicates": "n.d. / n.d. / n.d. / n.d. / n.d. / n.d.", "signal with controls": "0 of 18"}
{"changes": "S25F/Y31G/S33T/K36Y/T59I/H98D/S103A", "log10 Kd, replicates": "n.d. / n.d. / n.d. / n.d. / n.d. / n.d.", "signal with controls": "0 of 18"}
{"changes": "L30D/R34P/W56S", "log10 Kd, replicates": "0.24 / 0.12 / 0.17 / -0.04 / 0.07 / 0.17", "signal with controls": "1 of 18 (2.21)"}
{"changes": "K24M/Q27P/L30G/Y31M/S33D/T59Q/Q95N", "log10 Kd, replicates": "n.d. / n.d. / n.d. / n.d. / n.d. / n.d.", "signal with controls": "1 of 18 (1.21)"}
{"changes": "Y31T/S62N", "log10 Kd, replicates": "n.d. / n.d. / n.d. / n.d. / n.d. / n.d.", "signal with controls": "1 of 18 (1.41)"}
{"changes": "K36D/W56L", "log10 Kd, replicates": "n.d. / 1.80 / n.d. / 1.56 / n.d. / 2.91", "signal with controls": "0 of 18"}
{"changes": "S26I/V29G/R34D/H98M/L102T", "log10 Kd, replicates": "n.d. / n.d. / n.d. / n.d. / n.d. / n.d.", "signal with controls": "2 of 18 (1.85)"}
{"changes": "L30S/W56Q", "log10 Kd, replicates": "0.21 / -0.12 / -0.11 / -0.02 / -0.11 / -0.01", "signal with controls": "1 of 18 (2.83)"}
{"changes": "Q27Y/R34V/S38N/W56R/L100T", "log10 Kd, replicates": "2.06 / 1.58 / 1.50 / 1.42 / 1.36 / 2.33", "signal with controls": "1 of 18 (2.38)"}
{"changes": "S25F/Y31K", "log10 Kd, replicates": "0.87 / 0.40 / 0.69 / 0.97 / 0.44 / 0.67", "signal with controls": "0 of 18"}
{"changes": "S33D/W56S/A57E/S62M", "log10 Kd, replicates": "0.91 / 0.86 / 0.67 / 0.64 / 1.05 / 0.64", "signal with controls": "0 of 18"}

The 2 strongest on average among those seen in every replicate, once more:

{"changes": "L30S/W56Q", "log10 Kd, replicates": "0.21 / -0.12 / -0.11 / -0.02 / -0.11 / -0.01", "signal with controls": "1 of 18 (2.83)"}
{"changes": "L30D/R34P/W56S", "log10 Kd, replicates": "0.24 / 0.12 / 0.17 / -0.04 / 0.07 / 0.17", "signal with controls": "1 of 18 (2.21)"}

Three control strains display no target. For all light chain designs, 4% of the pairings with them gave a signal, with a median of 2.64 and one signal in twenty below 1.59, so weak values seen in few replicates may be background. Also given: how often the same scFv was detected with the empty control strains, with their mean in brackets.
Of ten entries with the parent sequence, four were seen in most replicates (averages 0.34 to 2.37), three in one and three in none, so single entries are noisy.
Values of this round are not directly comparable with the first-round values of the same sequences.
The authors averaged sequences with at least three values out of six and counted those with two or fewer as poor binders.

The measurements come from Li et al. 2023 (doi:10.1038/s41467-023-39022-2) through the FLAb antibody collection.